Results on 1 substance are retold here after patent publication US20160184287A1.

Protein sequences, listed by entry. Tags and fused reporters are not part of them. Residues count along the entry.
UniProt Q03431, 27-593: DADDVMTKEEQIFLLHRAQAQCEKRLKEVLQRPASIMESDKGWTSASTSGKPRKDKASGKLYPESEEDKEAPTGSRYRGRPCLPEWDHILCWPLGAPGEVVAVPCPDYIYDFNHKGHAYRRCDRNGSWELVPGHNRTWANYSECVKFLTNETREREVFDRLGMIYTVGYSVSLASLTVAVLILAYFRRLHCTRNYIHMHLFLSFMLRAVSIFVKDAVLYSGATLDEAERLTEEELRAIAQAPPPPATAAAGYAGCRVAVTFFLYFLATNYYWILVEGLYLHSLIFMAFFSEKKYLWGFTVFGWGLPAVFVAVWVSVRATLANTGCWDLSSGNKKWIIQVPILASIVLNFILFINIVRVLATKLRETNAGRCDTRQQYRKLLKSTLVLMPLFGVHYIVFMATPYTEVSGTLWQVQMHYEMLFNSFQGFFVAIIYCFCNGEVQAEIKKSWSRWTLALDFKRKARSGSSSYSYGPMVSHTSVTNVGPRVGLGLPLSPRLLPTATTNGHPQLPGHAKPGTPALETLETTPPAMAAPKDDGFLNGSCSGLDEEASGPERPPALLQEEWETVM

The assay addresses PTHrP receptor (human) (UniProt Q03431). The experiment in a line: radioligand binding assay (fmol per 90 min per mg protein), nicotine-treated vs. control, n=6.

Consider “[125I]-Tyr34-PTHrP-(1-34) (from UniProt P12272 37-70) (peptide)”, for which the decrease in PTHrP binding to its receptor after nicotine treatment vs. control came to 30%.
